Laboratory results reported in ChEMBL document CHEMBL1131296 (J Med Chem, 1998).
pKi: −log10 of the molar value.

Biological target: T1, Alpha-1A adrenergic receptor (Homo sapiens, UniProt P35348)
T1 sequence (P35348 whole entry): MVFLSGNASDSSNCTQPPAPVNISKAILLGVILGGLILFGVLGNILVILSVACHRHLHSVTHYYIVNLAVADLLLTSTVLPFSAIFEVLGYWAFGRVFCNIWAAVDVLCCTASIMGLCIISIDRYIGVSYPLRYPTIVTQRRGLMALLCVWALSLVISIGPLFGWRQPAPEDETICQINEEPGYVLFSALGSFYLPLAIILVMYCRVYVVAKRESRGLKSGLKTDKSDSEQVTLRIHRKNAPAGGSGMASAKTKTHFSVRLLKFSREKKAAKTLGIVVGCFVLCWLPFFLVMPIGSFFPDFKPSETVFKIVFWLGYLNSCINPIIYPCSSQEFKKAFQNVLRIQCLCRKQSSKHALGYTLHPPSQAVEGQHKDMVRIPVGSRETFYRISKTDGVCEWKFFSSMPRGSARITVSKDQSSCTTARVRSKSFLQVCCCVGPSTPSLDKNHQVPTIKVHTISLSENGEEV
Test: Binding affinity at human cloned Alpha-1A adrenergic receptor in chinese hamster ovary cells by [3H]-prazosin displacement.
Assay type: cell-based, CHO

With `COc1ccccc1N1CCN(CCN2C(=O)CC3(CCCC3)CC2=O)CC1` [BMY-7378] the pKi was 6.36.
